The values that follow come from ChEMBL document CHEMBL1138465, “N-aryl-oxazolidin-2-imine muscle selective androgen receptor modulators enhance potency through pharmacophore reorientation” (J Med Chem, 2009).

Test [1] deals with T1, Androgen receptor (Rattus norvegicus, UniProt P15207).
T1 sequence (P15207 whole entry): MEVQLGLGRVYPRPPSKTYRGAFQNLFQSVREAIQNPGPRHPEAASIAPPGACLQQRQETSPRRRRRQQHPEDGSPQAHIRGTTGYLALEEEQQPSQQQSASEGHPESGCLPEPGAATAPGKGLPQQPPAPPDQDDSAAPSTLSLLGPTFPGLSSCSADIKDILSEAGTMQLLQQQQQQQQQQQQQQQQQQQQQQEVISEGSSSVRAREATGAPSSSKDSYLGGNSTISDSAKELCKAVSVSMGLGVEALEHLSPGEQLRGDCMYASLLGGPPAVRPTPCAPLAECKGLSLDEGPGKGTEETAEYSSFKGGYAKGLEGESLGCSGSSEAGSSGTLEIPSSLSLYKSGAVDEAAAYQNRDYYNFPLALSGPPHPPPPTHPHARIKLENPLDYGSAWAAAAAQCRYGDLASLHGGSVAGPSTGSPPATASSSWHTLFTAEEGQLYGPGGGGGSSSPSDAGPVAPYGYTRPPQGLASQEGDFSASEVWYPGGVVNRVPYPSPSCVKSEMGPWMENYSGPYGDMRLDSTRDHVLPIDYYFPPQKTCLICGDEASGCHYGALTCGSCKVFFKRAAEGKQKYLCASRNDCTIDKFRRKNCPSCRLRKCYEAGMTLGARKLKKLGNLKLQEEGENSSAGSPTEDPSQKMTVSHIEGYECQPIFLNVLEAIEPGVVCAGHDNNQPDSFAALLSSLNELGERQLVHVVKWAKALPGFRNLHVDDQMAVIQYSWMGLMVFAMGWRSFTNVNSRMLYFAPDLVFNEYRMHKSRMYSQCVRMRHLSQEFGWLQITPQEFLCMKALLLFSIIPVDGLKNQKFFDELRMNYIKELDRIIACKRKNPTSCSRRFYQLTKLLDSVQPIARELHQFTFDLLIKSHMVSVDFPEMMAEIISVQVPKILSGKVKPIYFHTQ
Description: Agonist activity at rat androgen receptor expressed in mouse skeletal muscle C2C12 cells assessed as transcriptional activation after 24 hrs by androgen-specific response element driven luciferase reporter gene assay. Type of test: functional, cell-based. Background: A reporter such as luciferase makes a cellular process visible.

The target of test [2] is Androgen receptor (Homo sapiens, UniProt P10275). Description: Displacement of [3H[DHT from androgen receptor endogenously expressed in human MDA-MB-453 cells. Type of test: cell-based. Background: In a radioligand displacement assay an active substance lowers the binding of a labelled ligand.

Turning to `Cc1c(N2C(=O)N3CC[C@H](O)[C@H]3[C@@H]2C)ccc(C#N)c1Cl`, the EC50 (as a rule, the concentration giving half of the maximal effect) on Androgen receptor [1] was found to be 5.4 nM. Moreover, the Ki (usually a measure of affinity in units of concentration, obtained from inhibition or displacement) at Androgen receptor [2] worked out at 1.6 nM.
